# Measurements published in article PMC5856607 (Journal of pharmaceutical sciences, 2017).
# Tested on: Caco-2 cells
# Conditions: human
substance,measurement,value
CDF diacetate [CDFDA],"Clcdfda, diffusional clearance of CDFDA (fixed)",0.004 (fixed) mL/min
